Assay results reported in PubChem BioAssay AID493035 (The Scripps Research Institute Molecular Screening Center, 2011).
The list shows a part of the results, in another mix than the full data. The source made the active and inactive calls.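 How the source made its calls: active means inhibition above the mean of all tested compounds plus 3 SD (cut at about 49% in these data); inactive means the rest.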

By UniProt entry, the sequences of proteins in these tests, tags left out. Where a name states a change or a piece, a line headed by the entry shows the natural chain unless it says otherwise.
UniProt Q00G26: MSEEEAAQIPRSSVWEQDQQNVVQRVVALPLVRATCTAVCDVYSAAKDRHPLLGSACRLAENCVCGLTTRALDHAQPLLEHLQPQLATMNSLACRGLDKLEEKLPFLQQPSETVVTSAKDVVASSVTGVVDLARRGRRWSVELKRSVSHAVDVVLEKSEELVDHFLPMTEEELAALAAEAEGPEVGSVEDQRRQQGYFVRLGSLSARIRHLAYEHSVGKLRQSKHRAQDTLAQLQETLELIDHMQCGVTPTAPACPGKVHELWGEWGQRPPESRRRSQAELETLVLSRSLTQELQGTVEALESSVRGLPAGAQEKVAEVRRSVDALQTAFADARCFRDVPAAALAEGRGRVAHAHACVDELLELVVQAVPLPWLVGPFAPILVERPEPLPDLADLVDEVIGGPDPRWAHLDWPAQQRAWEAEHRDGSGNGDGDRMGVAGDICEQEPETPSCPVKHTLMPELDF
UniProt Q8WTS1: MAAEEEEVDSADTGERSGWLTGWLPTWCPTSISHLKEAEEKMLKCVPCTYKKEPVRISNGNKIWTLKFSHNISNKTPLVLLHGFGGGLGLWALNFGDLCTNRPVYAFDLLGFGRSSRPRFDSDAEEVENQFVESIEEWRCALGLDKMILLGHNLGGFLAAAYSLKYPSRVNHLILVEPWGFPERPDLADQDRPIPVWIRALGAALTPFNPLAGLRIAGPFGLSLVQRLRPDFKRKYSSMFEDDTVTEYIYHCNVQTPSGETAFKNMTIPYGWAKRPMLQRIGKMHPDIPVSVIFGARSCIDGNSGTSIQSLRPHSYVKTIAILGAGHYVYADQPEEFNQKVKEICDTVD

molecular target: Perilipin-5 (Homo sapiens) + 1-acylglycerol-3-phosphate O-acyltransferase ABHD5 (Homo sapiens) (UniProt Q00G26+Q8WTS1); assay: ABHD5-PLIN5 interaction inhibitors, pilot screen, cell lysate, split luciferase complementation, luminescence, NIH validation set (AID 493035);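 further: 0% = DMSO only wells while the 100% control is not stated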; details: split G. princeps luciferase complementation, lysates, 4 h, at 7.9 µM, stronger effect = higher value

| SMILES | inhibition |
| --- | --- |
| CN(C(=O)Cc1ccc(Cl)c(Cl)c1)[C@@H]1CCCC[C@H]1N1CCCC1 | inactive: -10.9% |
